Test results from patent publication US8288416B2, “Substituted piperidinophenyl oxazolidinones” (Wockhardt Ltd., priority 2006, dated 2012).

Assay: Aqueous solubility
Assay type: physicochemical

With “Phosphoric acid mono-(1-{4-[(S)-5-(acetylamino-methyl)-2-oxo-oxazolidin-3-yl]-2,6-difluorophenyl}-4-methoxymethyl-piperidin-4-yl)ester L-lysine salt [Example 9]” the “Aqueous solubility at pH 7” value was over 200 mg/ml.
